Data taken from patent US20230390416A1, “COMPOSITIONS FOR INDUCING TUMOR IMMUNITY AND REDUCING DRUG TOLERANCE” (The Brigham and Women's Hospital, Inc., priority 2020, published 2023).

Columns and labels:
MDA-MB-231 DTCCs = test: MICA/B expression by flow cytometry in DTCCs under Hsp90 inhibitors; type: cell-based, human; settings: % MICA/B positively expressing cells, overnight (radicicol 5 μM, FIG. 3C), vehicle 76.2 ± 1.1
Experimental: (§1) Two schedules of drugs in combination were administered to the indicated TNBC parental cell lines (A). […] Plots generated using constant ratio drug combination. […] N=11 in biological replicate. • (D) Quantification of MICA/B mean fluorescence, corrected for background by negative control. […] N≥4 in biological replicate. • (I) In vitro drug synergy was determined using the Chau-Talalay method. Two schedules of drugs in combination were administered to the indicated TNBC parental cell lines (A). […] Plots generated using constant ratio drug combination. Values falling below 1.0 combination index=synergy. • (J) In silico prediction model of drug schedule on signaling pathways. […] The first drug was administered at the beginning of the experiment (t=0), followed by the second drug after 48 h (t=48). […] GAPDH loading control.
(§2) Human MDA-MB-231, MDA-MB-468, MDA-MB-436, MCF-7, mammary carcinoma 4T-1 cells (ATCC) and SUM159 (Bioivt) were purchased in the last 10 years and cultured in 10% fetal bovine serum in DMEM or RPMI media (Invitrogen, Carlsbad CA, USA). Cell lines were validated for absence of mycoplasma prior to use, by the sourcing agency. Cells were used within 10 passages from frozen stock vials obtained from the sourcing agency.

MDA-MB-468 DTCCs = test: as above; type: cell-based, human; settings: % MICA/B positively expressing cells, vehicle 54.7 ± 3.9
Experimental: as §1, §2

SUM 159 DTCCs = test: as above; type: cell-based, human; settings: % MICA/B positively expressing cells, vehicle 30.6 ± 0.9
Experimental: as §1, §2

Hsp90 = settings: DTCCs; confocal microscopy and western blot

`C[C@@H]1C[C@H]2O[C@@H]2/C=C\C=C\C(=O)Cc2c(Cl)c(O)cc(O)c2C(=O)O1` [Radicicol, radicicol] was tested, and the “MICA (%) ± SEM” value (MDA-MB-231 DTCCs) was 93.2 ± 0.9%, the “MICA (%) ± SEM” value (MDA-MB-468 DTCCs) was 96.8 ± 1.8% and the “MICA (%) ± SEM” value (SUM 159 DTCCs) was 74.8 ± 0.5%. The “cytoplasmic sequestration of HSF-1 Ser326 and activation of pro-survival proteins” value (Hsp90) was “reversed cytoplasmic sequestration of HSF-1^Ser326 and activation of pro-survival proteins”.
